Experiment [1] has as its system BCG vaccine and lipopolysaccharide-induced immunological liver damage. Set-up: species or system Wistar Rats. The note with it: rat, in vivo, ip.
Experiment [2] deals with tetrachloromethane-induced liver damage. Description: Tetrachloromethane-induced liver damage of mice. As to conditions: 750 thousand units/kg intraperitoneal, every day for 7 days. Type of experiment: in vivo, BALB/c mice. From the text: BALB/c mice, each of which is 18 g˜22 g weight, and purchased from Shanghai Slac Laboratory Animal, Inc., were divided randomly into 8 groups as follows with 10 rats in each group: (1) the diammonium glycyrrhizinate injection group, injected with diammonium glycyrrhizinate; (2) the interferon group, injected with recombinant human interferon-α2a); (3) the high dose group, immunized with Peptide A and adjuvant; (4) the medium dose group, immunized with Peptide A and adjuvant; (5) the low dose group, immunized with Peptide A and adjuvant; (6) the adjuvant control group, immunized with adjuvant only; (7) the blank control group; and (8) the model group.
At the first before the first immunization, 0.05 ml CCl4 (available from Shanghai Linfen Chemical Reagent Co., Ltd.) was administered via subcutaneous injection to each mouse of all groups other than the blank control group; and the equivalent volume of physiological saline was injected for the blank control group. […]

Consider “interferon: recombinant human interferon-α2a purchased from Shenyang Sunshine Pharmaceutical Co., Ltd. [reference compound]”, for which the “pathological conditions (score) versus model group” value in experiment [1] is “alleviated significantly”. Also, in experiment [2], the “activity to decrease the level of aminotransferase” value is “no significant activities” and the “tetrachloromethane-induced hepatomegaly of mice” value is given as “no significant activity”.

Source of the values: patent US8263562B2, “Peptides for preventing or treating liver damage” (priority 2006, dated 2012).
